Reference: PubChem BioAssay AID2516 (University of Pittsburgh Molecular Library Screening Center, 2010)
Only a part is listed here, and it is no random draw. Calls of active or inactive are those of the source.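 Rule for the calls: active = at least 50% inhibition in the glucose-6-phosphate dehydrogenase coupled counterscreen; inconclusive = no clear call, values can overlap the other calls; inactive = inhibition below 50%.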

Tested on: glucose-6-phosphate dehydrogenase [Leuconostoc mesenteroides]
Assay: coupling enzyme G6PDH activity blockers – biochemical, DPI cherry-picked compounds, single concentration, counter-screen for TbHK1 inhibitor project, confirmation (AID 2516)
Details: purified G6PDH, NADH absorbance, 1 h; at 10 µM; hits give high values
Outline: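 Assay system: purified G6PDH enzyme / Quantity: G6PDH enzyme at 0.006 mU/µL final / Doses: one dose, 10 µM / Schedule: enzyme reaction for 1 h at room temperature / Detection: absorbance, mix-and-read, after quench with 50 mM EDTA final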

## O=P(Nc1nccs1)(c1ccccc1)c1nc2ccccc2s1 (stereo unspecified)
  inhibition: inactive: -11.5%
